How the values were obtained:
[1] = test system: Muscarinic acetylcholine receptors M1 & M2 (Rattus norvegicus); assay: The ratio of Ki for M2 receptor to the Ki for M1 receptor was determined
[2] = Minimum dose required for subcutaneous administration to improve scopolamine-induced impairment of passive avoidance task in mouse(anti-amnesic effect)

SMILES | M2/M1 Index [1] | MED [2]
CCN1C(=O)C2(CCN(C)CC2)OC1=S | 4.8 | 0.3 mg/kg
CN1CCC2(CC1)OC(=S)N(C(C)(C)C)C2=O.Cl | 10 | 0.3 mg/kg
CCN1C(=O)OC2(CCN(Cc3ccccc3)CC2)C1=O | – | 30 mg/kg
CN1CCC2(CC1)OC(=S)N(c1ccccc1)C2=O | – | > 30 mg/kg
COC(=O)CN1C(=O)OC2(CCN(C)CC2)C1=O | – | > 30 mg/kg
CN1CCC2(CC1)OC(=O)N(C(C)(C)C)C2=O | – | > 30 mg/kg

Reference: ChEMBL document CHEMBL1126758, “Synthesis and structure-activity studies of a series of spirooxazolidine-2,4-diones: 4-oxa analogues of the muscarinic agonist 2-ethyl-8-methyl-2,8-diazaspiro[4.5]decane-1,3-dione” (J Med Chem, 1993)
